Reference: US20070031511A1, “Method of treatment” (priority 2003, published 2007)

Experiment: Solubility of peptides in NMR sample preparation
Type: physicochemical
Details: NMR sample conditions, pH 5.3
Experimental: For the subsequent experiments, samples were prepared for NMR spectroscopy by dissolving 2.5 mg of peptide in 0.6 ml of 10% DMSO/10% ^2H2O/80% H2O at 278 K. The pH was adjusted with small amounts of 1M NaO^2H or ^2HCl to pH 5.3. ^1H chemical shifts were referenced to 2,2-dimethyl-2-silapenthane-5-sulfonate at 0 ppm via the chemical shift of the H2O resonance or an impurity at 0.15 ppm. NMR spectra were recorded on Bruker DRX-600 and AMX-500 instruments, as described previously (Barnham et al, 1999).
The peptides LE5AYG, LE5A, E5AY and E5A (approximately 2 mM) were dissolved in H2O with 5 or 10% ^2H2O. […] Sequence-specific ^1H NMR resonance assignments were made from two-dimensional nuclear Overhauser enhancement spectroscopy (NOESY) and total correlation spectroscopy (TOCSY).

- Solubility: slightly insoluble at 2 mM
Structure (SMILES): CC(C)C[C@H](N)C(=O)N[C@@H](CCC(=O)O)C(=O)N[C@@H](CCC(=O)O)C(=O)N[C@@H](CCC(=O)O)C(=O)N[C@@H](CCC(=O)O)C(=O)N[C@@H](CCC(=O)O)C(=O)N[C@@H](C)C(=O)N[C@@H](Cc1ccc(O)cc1)C(=O)O [LE5AY]
